# Measured affinities in a library of Ab-14 light chain variants

Target: peptide PDVDLGDISGINAS, taken from heptad repeat 2 (HR2) of SARS-CoV-2 spike.

Parent: Ab-14, a human scFv built as VH, the linker GGGGSGGGGSGGGGS, VL. Only the CDRs of the light chain vary.
VH: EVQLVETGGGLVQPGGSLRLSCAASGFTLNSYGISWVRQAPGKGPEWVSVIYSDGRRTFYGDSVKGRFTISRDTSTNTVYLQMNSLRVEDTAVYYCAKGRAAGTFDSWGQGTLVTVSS
VL: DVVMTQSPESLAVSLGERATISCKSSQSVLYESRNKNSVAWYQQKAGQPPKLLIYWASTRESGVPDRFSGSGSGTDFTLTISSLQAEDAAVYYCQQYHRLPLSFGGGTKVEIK

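The parent was found by panning a naive human phage display library on the peptide. This is the validation round: designs drawn from the data on random variants, tested in the same kind of assay. Their group label is 14L_GP_Gen (GP: Gaussian process model; Gen: genetic algorithm; a sequence that several methods proposed may carry one label only). Affinity was read by AlphaSeq, a pooled yeast mating assay with surface-displayed partners. The frequency of each diploid, read from paired DNA barcodes, reflects how well the two displayed proteins bind. Read counts were normalised to the haploid input and turned into Kd by a linear fit to BCL2-family pairs of known affinity, for each replicate. Each pool was mated in six replicate cultures.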

Each variant is given by its three light chain CDRs, as the data file delimits them; those of the parent are KSSQSVLYESRNKNSVA, WASTRES, QQYHRLPLS. Values are log10 of the apparent Kd in nM; lower means stronger binding. Nonspecific signal, from three strains lacking the peptide, appeared in 4% of pairings of all light chain designs, centred on 2.64 (5% of these signals below 1.59); values are not corrected for it. Also given: how often the same scFv was detected with the empty control strains, with their mean in brackets. The authors' rule: three or more of the six replicates give a measured affinity, fewer mean a poor binder. A sequence measured in both rounds can read differently, since the two assays cover different ranges. The parent sequence was in this pool as ten entries: three were never detected, three once, and four in most replicates, with averages from 0.34 to 2.37.

| CDR-L1 | CDR-L2 | CDR-L3 | replicates, log10 nM | control signals |
|---|---|---|---|---|
| KLPQSVLYESRNKNSVA | QASTRED | QQYHRLPLS | -0.23 / -0.29 / -0.36 / -0.47 / -0.32 / -0.25 | 1/18 (2.87) |
| KLEQSCLYESRNKNSVA | NASQRES | QQYHRLPLS | 0.43 / 0.31 / 0.75 / 0.37 / 0.69 / 0.33 | 1/18 (2.49) |
| KLPQSVLYESRNKNSVA | NASTREE | QQYHRLPLS | -0.23 / -0.41 / -0.26 / -0.64 / -0.45 / -0.14 | 1/18 (4.87) |
| KLQQSHLYESRNWNSVA | NASTRLS | QQYHRLPLS | 0.35 / 0.47 / 0.37 / 0.23 / 0.49 / 0.45 | 1/18 (2.79) |
| KLMQSDLYESRNKNSVA | NASTRMS | QQYHRLPLS | -0.34 / -0.15 / -0.32 / -0.46 / -0.42 / -0.33 | 2/18 (2.61) |
| KLSQSQLYESRNKNNVA | EASTRES | QQYHRLPLS | 0.61 / -0.02 / -0.16 / -0.26 / -1.02 / -0.52 | 0/18 |
| KLSQSWLYESRNKNSVA | NASTRSS | QQYHRLPLS | 0.18 / 0.55 / 0.34 / -0.06 / 0.19 / -0.02 | 1/18 (2.05) |
| KLSQSVMYESRNKNSVA | HASTRES | QQYHRLPLS | -0.14 / -0.12 / -0.40 / -0.25 / -0.33 / -0.18 | 0/18 |
| KLSQSWLYESRNKNSVA | EASTREM | QQYHRLPLS | -0.12 / -0.12 / -0.18 / -0.38 / 0.31 / 0.29 | 1/18 (2.37) |
| KLSQSQLYESRNKNSVA | NASTREM | QQYHRLPLS | 0.11 / -0.01 / 0.03 / -0.13 / -0.13 / 0.04 | 2/18 (2.83) |
| KLSQSVPYESRNKNNVA | EASTRES | QQYHRLPLS | 0.40 / 0.37 / 0.29 / -0.06 / 0.05 / 0.20 | 0/18 |
| KLEQSVLYESRNKNSVA | NASTRLS | QQYHRLPLS | 0.50 / 0.42 / 0.65 / 0.37 / 0.81 / 0.55 | 0/18 |
| KLSQSHLYESRNKNSVA | NASQRES | QQYHRLPLS | 0.19 / 0.10 / 0.13 / -0.10 / 0.00 / 0.16 | 1/18 (1.84) |
| KVSPSFLYESRNKNSVA | DASTRES | QQYHRLPLS | -0.22 / -0.29 / -0.05 / -0.14 / -0.23 / -0.13 | 0/18 |
| KLSPSWLYESRNKNSVA | EASTRES | QQYHRLPLS | -0.18 / -0.24 / -0.06 / -0.19 / -0.26 / -0.10 | 0/18 |
| KLSQSHLYESRNKNSVA | QASTRES | QQYHRLPLS | 0.01 / -0.08 / -0.09 / -0.29 / -0.11 / 0.07 | 0/18 |
| KLPQSWLYESRNKNSVA | DASTRES | QQYHRLPLS | -0.30 / -0.38 / -0.30 / -0.40 / -0.31 / -0.23 | 0/18 |
| HLSQSVLYESRNKNSVA | NASQRES | QQYHRLPLS | 0.40 / 0.57 / 0.11 / 0.29 / 0.27 / 0.25 | 0/18 |
| KVSQSELYEDRNKNSVA | NASQRES | QQYHRLPLS | 0.47 / 0.31 / 0.13 / -0.04 / 0.07 / 0.45 | 1/18 (1.80) |
| KLSQSVLYESRMKNSVA | NGSTRES | QQYHRLPLS | 0.83 / 0.33 / 0.28 / 0.51 / 0.39 / 0.48 | 1/18 (3.01) |
| KLEQSSLYESRNKNSVA | NASTRLS | QQYHRLPLS | 0.02 / -0.14 / 0.11 / -0.36 / -0.23 / -0.01 | 0/18 |
| KMPQSVLYESRNKNSVA | DASTRES | QQYHRLPLS | 0.05 / 0.14 / -0.05 / -0.17 / -0.19 / -0.01 | 0/18 |
| KLSQSWLYESRNKNSVA | HASQRCS | QQYHRLPLS | 0.00 / 0.06 / -0.13 / -0.45 / -0.13 / 0.18 | 1/18 (2.55) |
| KSQQSQLYESRNKNSVA | NASTRLS | QQYHRLPLS | 0.12 / 0.06 / 0.23 / -0.03 / 0.08 / 0.46 | 0/18 |
| KLQQSMLYESRNKNSVA | NASTRCS | QQYHRLPLS | 0.02 / -0.06 / -0.19 / -0.26 / -0.41 / -0.18 | 2/18 (3.33) |
| KLQQSWLYESRNKNSVA | NASTRSS | QQYHRLPLS | 0.02 / -0.07 / -0.14 / -0.12 / -0.12 / 0.03 | 5/18 (3.12) |
| KLEQSVLYESRNKNSVA | NASTRES | QQYHRLPLM | 0.08 / -0.08 / -0.22 / -0.21 / -0.26 / -0.03 | 4/18 (2.52) |
| KVSQSELYEDRNKNSVA | NASTRES | QQYHRLPLS | 0.83 / -0.07 / 1.07 / -0.06 / 0.26 / 0.99 | 0/18 |
| KVSQSVPYESRNKNAVA | EASTRES | QQYHRLPLS | -0.14 / -0.26 / -0.30 / -0.37 / -0.32 / -0.03 | 3/18 (2.62) |
| KVSESNLYESRNKNSVA | EASTRES | QQYHRLPLS | 0.26 / -0.15 / -0.14 / -0.27 / -0.20 / 0.21 | 0/18 |
| KLSQSVLYEQRNKNSVA | QASTRES | QQYHRLPLS | 0.63 / 0.42 / 0.29 / 0.39 / 0.58 / 0.52 | 1/18 (3.15) |
| KLSQSKLYESRNKNSVA | NASTRMS | QQYHRLPLS | 0.19 / 0.08 / 0.06 / 0.10 / 0.14 / 0.27 | 1/18 (2.18) |
| KFSQSDLYESRNKNSVA | HASTRES | QQYHRLPLS | 0.26 / 0.41 / -0.01 / -0.07 / 0.15 / 0.24 | 0/18 |
| KFSQSVLYESRNKNSVA | EASTRES | QQYHRLPLM | -0.06 / -0.10 / -0.32 / -0.13 / -0.14 / -0.07 | 1/18 (4.02) |
| KVSQSHLYESRNKNAVA | EASTRES | QQYHRLPLS | 0.39 / 0.33 / 0.35 / 0.38 / 0.44 / 0.68 | 0/18 |
| KLQQSQLYESRNKNSVA | DASTRLS | QQYHRLPLS | -0.05 / -0.10 / -0.28 / -0.39 / -0.27 / -0.25 | 0/18 |
| KLQQSDLYESRNKNSVA | EASTRCS | QQYHRLPLS | 0.23 / -0.14 / 0.14 / 0.09 / -0.28 / -0.07 | 1/18 (2.47) |
| KVSQSVLYEDRNKNSVA | HASQRES | QQYHRLPLS | -0.25 / -0.54 / -0.43 / -0.62 / -0.51 / -0.43 | 0/18 |
| KVEQSELYESRNKNSVA | NASTRES | QQYHRLPLS | 0.38 / -0.41 / -0.13 / -0.92 / -0.83 / -0.42 | 0/18 |
| KVHQSVLYESRNKNSVA | NASTRES | QQYHRLPLS | -0.13 / -0.28 / -0.15 / -0.55 / -0.18 / -0.05 | 0/18 |
| KLQQSELYESRNKNSVA | EASTRSS | QQYHRLPLS | 0.02 / -0.07 / -0.14 / -0.16 / -0.06 / -0.02 | 0/18 |
| KLSQSELYESRNKNSVA | NASTREM | QQYHRLPLS | 0.08 / -0.08 / -0.12 / -0.37 / -0.29 / 0.06 | 0/18 |
| KFSQSVLYESRNKNSVA | HASQRES | QQYHRLPLS | -0.34 / -0.37 / -0.29 / -0.24 / -0.59 / -0.36 | 1/18 (2.25) |
| KLPQSHLYESRNKNSVA | EASTRES | QQYHRLPLS | 0.12 / -0.03 / -0.08 / -0.31 / -0.17 / 0.13 | 1/18 (4.43) |
| KLSQSWLYESRMKNAVA | NASQRES | QQYHRLPLS | -0.10 / -0.19 / -0.22 / -0.38 / -0.30 / -0.11 | 4/18 (2.85) |
| KLSQQVLYESRNKNSVA | EASTRES | QQYHRLPLS | -0.41 / -0.39 / -0.29 / -0.65 / -0.30 / -0.17 | 1/18 (1.81) |
| KLSQSVLYESRDKNSVA | NASTRES | QQYHRLPLS | 0.05 / -0.07 / -0.04 / -0.35 / -0.21 / 0.03 | 2/18 (2.19) |
| KLQQSVLYESRNKNSVA | NASTRCD | QQYHRLPLS | 0.10 / 0.10 / -0.03 / -0.11 / -0.19 / 0.13 | 2/18 (3.12) |
| KLSQSVMYESRNKNSVA | NASTREQ | QQYHRLPLS | -0.07 / -0.26 / -0.29 / -0.50 / -0.28 / -0.29 | 1/18 (2.24) |
| KLQQSNLYESRNKNSVA | NASTRLS | QQYHRLPLS | -0.03 / 0.09 / -0.12 / -0.04 / 0.07 / 0.20 | 0/18 |
| KLSQSELYESRNFNSVA | NASTRMS | QQYHRLPLS | 0.38 / 0.29 / 0.10 / 0.09 / 0.38 / 0.45 | 1/18 (3.34) |
| KLEQSVLYEERNKNSVA | NASQRES | QQYHRLPLS | 0.41 / 0.33 / 0.28 / 0.26 / 0.28 / 0.46 | 2/18 (1.76) |

4 of these entries, quoted again:

CDR-L1	CDR-L2	CDR-L3	replicates, log10 nM	control signals
HLSQSVLYESRNKNSVA	NASQRES	QQYHRLPLS	0.40 / 0.57 / 0.11 / 0.29 / 0.27 / 0.25	0/18
KLSQSQLYESRNKNSVA	NASTREM	QQYHRLPLS	0.11 / -0.01 / 0.03 / -0.13 / -0.13 / 0.04	2/18 (2.83)
KLSQSVPYESRNKNNVA	EASTRES	QQYHRLPLS	0.40 / 0.37 / 0.29 / -0.06 / 0.05 / 0.20	0/18
KVSQSELYEDRNKNSVA	NASTRES	QQYHRLPLS	0.83 / -0.07 / 1.07 / -0.06 / 0.26 / 0.99	0/18

Source: Li et al. 2023 (doi:10.1038/s41467-023-39022-2), MIT Lincoln Laboratory and A-Alpha Bio; data file from the FLAb repository.